In patent publication US6187572A, “Method of inactivation of viral and bacterial blood contaminants” (Baxter International Inc., priority 1993, dated 2001):

Tested on: .phi.6 virus
Details: Example 10; 1%, 353 kr; words

CCCCOP(=O)(OCCCC)OCCCC
viral inactivation with X-ray in hydrated and lyophilized plasma: substantially enhanced
